Laboratory results published in patent publication US11535630B2, “Apelin receptor (APJ) agonists and uses thereof” (Research Triangle Institute, priority 2015, dated 2022).
Like-named read-outs stand apart in the source and are kept apart here.

By UniProt entry, the sequences of proteins in these tests, tags left out.
UniProt P35414, whole entry: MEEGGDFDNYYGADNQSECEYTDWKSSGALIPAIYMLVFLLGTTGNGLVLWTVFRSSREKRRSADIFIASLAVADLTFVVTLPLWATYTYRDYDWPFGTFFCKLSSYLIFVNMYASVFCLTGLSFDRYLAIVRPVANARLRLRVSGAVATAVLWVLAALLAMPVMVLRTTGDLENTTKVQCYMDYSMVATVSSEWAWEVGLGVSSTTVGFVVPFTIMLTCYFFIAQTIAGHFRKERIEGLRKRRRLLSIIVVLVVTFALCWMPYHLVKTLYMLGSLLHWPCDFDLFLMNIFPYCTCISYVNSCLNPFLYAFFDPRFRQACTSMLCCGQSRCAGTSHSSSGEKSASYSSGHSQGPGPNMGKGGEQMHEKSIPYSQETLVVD

Molecular target: apelin receptor (APJ) (Homo sapiens, UniProt P35414)
Experiment: In vitro apelin agonist activity (methods of Giddings et al., Apelin-13 as positive control)
Assay type: cell-based

SMILES	EC50 (read-out: EC50 (nM) Ave, tested form: HCl)	EC50 (read-out: EC50 (nM) Ave)
C[C@H](C(=O)O)[C@H](CCN1CC2C(C1)C2(F)F)NC(=O)c1cc(-c2ccccc2C(F)(F)F)n(C2CCCC2)n1 (stereo partly shown)	87 nM	–
O=C(N[C@@H](CCN1CCCC(F)(F)C1)Cc1nnc[nH]1)c1cc(-c2ccccc2C(F)(F)F)n(C2CCCC2)n1	–	21 nM
O=C(N[C@@H](CCN1CC2C(C1)C2(F)F)Cc1nnn[nH]1)c1cc(-c2ccccc2C(F)(F)F)n(C2CCCC2)n1 (stereo partly shown)	–	61 nM
COCCN(C)C(=O)[C@H](COC(C)(C)C)NC(=O)c1cc(-c2ccccc2C(F)(F)F)n(C2CCCC2)n1	–	5550 nM
